Assay results from PubChem BioAssay AID1777 (Sanford-Burnham Center for Chemical Genomics, 2009).
Some of the results follow. Results with a measured potency or affinity are listed apart. Active and inactive are the calls of the source. Cut-off read from the data, not from the text of the source: active = activation above about 50% (passing the limit was not always enough); inactive = the rest.

Protein sequences, listed by entry. Tags and fused reporters are not part of them. Lines headed by an entry give the natural chain unless they say otherwise; changes in a name come on top.
UniProt P41145: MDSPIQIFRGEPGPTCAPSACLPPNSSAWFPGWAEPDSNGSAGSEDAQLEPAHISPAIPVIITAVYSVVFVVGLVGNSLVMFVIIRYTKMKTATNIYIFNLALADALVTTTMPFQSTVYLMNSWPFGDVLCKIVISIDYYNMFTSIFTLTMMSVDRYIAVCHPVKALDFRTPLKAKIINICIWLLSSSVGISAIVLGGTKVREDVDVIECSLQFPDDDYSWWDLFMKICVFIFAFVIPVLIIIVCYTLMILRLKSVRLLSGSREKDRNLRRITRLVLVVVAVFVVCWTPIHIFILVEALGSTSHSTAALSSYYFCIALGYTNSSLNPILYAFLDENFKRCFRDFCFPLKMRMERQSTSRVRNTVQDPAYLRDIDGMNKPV

What follows are molecules tested against Kappa-type opioid receptor (Homo sapiens) (UniProt P41145) (assay: KOR agonists, beta-arrestin recruitment, primary screen, cell-based, luminescence, uHTS (AID 1777)). Conditions: at 10 µM, active compounds read high.
`O=C1NCN(c2ccccc2)C12CCNCC2` was tested, and the activation was inactive: -10%. For `Cn1c(=O)c2c(ncn2CCNC2=NCCCCC2)n(C)c1=O`, the activation was inactive: -4.1%. For `C[C@@H]1C=CCP(=O)(Oc2ccccc2)O1` (some centres undefined), the activation was inactive: -2.3%. For `O=C(CCNC(=O)N1CCn2c1nc1ccccc12)NCc1ccccc1Cl`, the activation was inactive: 4.8%. `CN(C)C(=O)CSc1nc2ccccc2n1CC(=O)N1CCN(c2ccccc2)CC1` was tested, and the activation was inactive: -3.6%. With `CN(C)CCn1c(N)nc2ccccc21` the activation was inactive: -2%. With `Cc1ccc2c(c1)C1CN(C)CCC1N2Sc1ccccc1[N+](=O)[O-]` (centres undefined) the activation was inactive: -2%. For `CCC(=O)Nc1nc2ccccc2n1CCN(C)C`, the activation was inactive: -6.1%. `C[C@H]1OP(=O)(Oc2ccccc2)C[C@@H]2O[C@@H]21` (some centres undefined) was tested, and the activation was inactive: -2.4%. In the case of `Cc1ccc2c(c1)C1CN(C)CCC1N2C(=O)Nc1cccc(Cl)c1` (centres undefined), the activation is reported as inactive: -2%. With `CCOc1ccc(S(=O)(=O)N(C)c2ccc(OCC(=O)N3c4ccc(C)cc4C4CN(C)CCC43)cc2)cc1` (centres undefined) the activation was inactive: -0.4%. With `CC(C)(C)NC(=O)Cn1c(SCC(=O)Nc2nccs2)nc2ccccc21` the activation was inactive: -6.4%. `O=C(CCCCCNC(=O)N1CCn2c1nc1ccccc12)N[C@H](C(=O)O)c1ccccc1` was tested, and the activation was inactive: -2.5%. With `Cc1ccc2c(c1)C1CN(C)CCC1N2C(=O)COc1ccc(N(C)S(=O)(=O)c2cccs2)cc1` (centres undefined) the activation was inactive: 1.8%. For `COC(=O)c1ccccc1NC(=O)Cn1c(-c2nonc2N)nc2ccccc21`, the activation was inactive: 2.3%. In the case of `Cn1c(=O)c2c(ncn2CC(=O)N/N=C/C(Cl)=C/c2ccccc2)n(C)c1=O`, the activation is reported as inactive: -0.8%. `O=C(Cn1cnc2ccccc21)N/N=C/C(Br)=C/c1ccccc1` was tested, and the activation was inactive: 7.1%. In the case of `CC(NC(=O)CCCCCNC(=O)N1CCn2c1nc1ccccc12)c1ccccc1` (centres undefined), the activation is reported as inactive: 5.6%. `O=C(Cn1c(SCC(=O)N2CCCc3ccccc32)nc2ccccc21)N1CCCC1` was tested, and the activation was inactive: -5.4%. With `CC(=O)c1ccc(N2CC2c2ccncc2)cc1` (centres undefined) the activation was inactive: -4.4%. In the case of `Cc1cc(NC(=O)CSc2nc3ccccc3n2CC(=O)N2CCC(C)CC2)no1`, the activation is reported as inactive: 3.6%. For `O=C(CCNC(=O)N1CCn2c1nc1ccccc12)NCc1ccc(Cl)cc1`, the activation was inactive: -4.2%. `CC(=O)Nc1ccc(Oc2c([N+](=O)[O-])cc([N+](=O)[O-])cc2[N+](=O)[O-])cc1` was tested, and the activation was inactive: -2.4%. `Cc1nc2cc(C(F)(F)F)ccc2n1C1CCN(Cc2nnnn2CCc2ccccc2)CC1` was tested, and the activation was inactive: -5.1%. With `CN1C(=O)CC(n2c(CO)nc3ccccc32)C1=O` (centres undefined) the activation was inactive: -0.7%. `CCOC(=O)c1ccc(NC(=O)C2CC(=O)Nc3nc4ccccc4n32)cc1` (centres undefined) was tested, and the activation was inactive: -0.2%. `CCC(C(=O)NC1CCCC1)n1c(SCc2cccc(C)c2)nc2ccncc21` (centres undefined) was tested, and the activation was inactive: -2.3%. `COc1ccc2c(c1)C1(Nc3ccccc3-c3nc4ccccc4n31)C(=O)N2` (centres undefined) was tested, and the activation was inactive: 2.6%. With `CC(=O)Nc1ccc([As](=O)(O)O)c(O)c1` the activation was inactive: 6.5%. For `CC1=NNC(=O)C1CCC(=O)N/N=C/C=C/c1ccccc1` (centres undefined), the activation was inactive: -3.3%. `O=S(=O)(c1ccc(F)cc1)N1CCn2c(nc3ccccc32)C1` was tested, and the activation was inactive: 8.3%. With `CSCC[C@H](NC(=O)N1CCn2c1nc1ccccc12)C(=O)NC1CCCCC1` the activation was inactive: -6%. In the case of `COCCN1CCn2c(nc3cc(NC(=O)Cn4nc(C)c5ccccc5c4=O)ccc32)C1`, the activation is reported as inactive: 8.1%. `COc1ccc(CCNC(=O)[C@H](C)NC(=O)N2CCn3c2nc2ccccc23)cc1OC` was tested, and the activation was inactive: -2.1%. `CC(C)[C@H](NC(=O)N1CCn2c1nc1ccccc12)C(=O)NCc1ccc(F)cc1` was tested, and the activation was inactive: -2.8%. `COc1ccccc1OCC(O)Cn1c(=N)n(CCN2CCCCC2)c2ccccc21` (centres undefined) was tested, and the activation was inactive: 2%. With `CC(C)C[C@H](NC(=O)N1CCn2c1nc1ccccc12)C(=O)NCc1ccccc1` the activation was inactive: 3%. For `Fc1ccc2c(c1)nnn2C1CCN(Cc2nnnn2CCc2ccccc2)CC1`, the activation was inactive: 3.3%. For `O=C(Cn1cnc2ccccc21)Nc1ccc(C(=O)O)cc1`, the activation was inactive: -1.5%. For `O=C(C1COc2ccccc2O1)N1CCn2c(nc3ccccc32)C1` (centres undefined), the activation was inactive: -9%. For `COCCN1CCn2c(nc3cc(NC(C)=O)ccc32)C1`, the activation was inactive: 0.9%. In the case of `CCOc1ccc(C2=NCC(CBr)S2)cc1` (centres undefined), the activation is reported as inactive: -1.2%. `COCCNC(=O)Cn1cnc2c1c(=O)n(C)c(=O)n2C` was tested, and the activation was inactive: 1%. With `O=P1(Nc2nc3ccc(Cl)cc3s2)COc2ccccc2O1` (centres undefined) the activation was inactive: 4.2%. In the case of `CCn1c(=O)c2c(nc3n2CCN3c2ccccc2)n(C)c1=O`, the activation is reported as inactive: -1.7%. With `C[C@H](NC(=O)N1CCn2c1nc1ccccc12)C(=O)NCc1ccccc1` the activation was inactive: 8.2%. With `CC1CN(C(=O)Cn2cnc3c2c(=O)n(C)c(=O)n3C)CC(C)O1` (centres undefined) the activation was inactive: -0.4%. In the case of `Cc1nc2ccccc2n1CC(=O)N1CC(=O)Nc2ccccc21`, the activation is reported as inactive: -2%. In the case of `COc1cccc(CNC(=O)[C@H](CCSC)NC(=O)N2CCn3c2nc2ccccc23)c1`, the activation is reported as inactive: -2.3%. `Cc1ccc2c(c1)C1CN(C)CCC1N2C(=O)COc1ccc(N(C)C(=O)c2ccccc2)cc1` (centres undefined) was tested, and the activation was inactive: -2.3%. With `Cc1ccc(C)c(CSc2nc3ccncc3n2CC(=O)Nc2ccc(C)c(C)c2)c1` the activation was inactive: 8%. `N=c1n(CCCOc2ccccc2Cl)c2ccccc2n1CC(N)=O` was tested, and the activation was inactive: -0.6%. In the case of `N#Cc1cccc(NC(=O)Cn2c3[n+](c4ccc(C(F)(F)F)cc42)CCCCC3)c1`, the activation is reported as inactive: 2.6%. For `CC(C)CCNC(=O)CC1C(=O)N(Cc2ccccc2)C(C)c2nc3ccccc3n21` (centres undefined), the activation was inactive: -1.3%. For `CC(C)(C)NC(=O)Cn1c(SCC(N)=O)nc2ccccc21`, the activation was inactive: 6.1%. In the case of `CCc1cccc(CC)c1N(COC)C(=O)Cn1cnc2ccccc21`, the activation is reported as inactive: -0.8%. With `C[C@H](NC(=O)N1CCn2c1nc1ccccc12)C(=O)N1CCCCC1` the activation was inactive: 3.6%. With `CSc1nc2ccccc2n1CC(=O)Nc1ccc(C)c(C)c1` the activation was inactive: -0.4%. In the case of `CCc1cccc(CC)c1N(COC)C(=O)Cn1c(CO)nc2ccccc21`, the activation is reported as inactive: -4.1%. With `COc1ccc(/C=N/NC(=O)Cn2cnc3c2c(=O)n(C)c(=O)n3C)cc1` the activation was inactive: 1.3%. In the case of `c1ccc(CN2CCC(Nc3nc(-c4cccnc4)nc4ccccc34)CC2)cc1`, the activation is reported as inactive: -2%. In the case of `COC(=O)C1=C(Cn2cnc3ccccc32)NC(=O)NC1c1cc(C)ccc1C` (centres undefined), the activation is reported as inactive: -2.8%. In the case of `CC(C)(C)C(=O)NC(Sc1ccccc1)C(Cl)(Cl)Cl` (centres undefined), the activation is reported as inactive: 6.9%. For `O=C(Cn1c(CO)nc2ccccc21)Nc1ccccc1Cl`, the activation was inactive: 3.5%. In the case of `CCc1nc2ccccc2n1CC(=O)N1CCN(Cc2ccccc2)CC1`, the activation is reported as inactive: -2.9%. With `CSc1nc2ccccc2n1CC(=O)Nc1c(C)n(C)n(-c2ccccc2)c1=O` the activation was inactive: -2%. `CC(/C=C/c1ccccc1)=N/NC(=O)CCC(=O)Nc1ccccc1C` was tested, and the activation was inactive: 4.4%. In the case of `O=C(Cn1c(-c2cncs2)nc2ccccc21)NCCc1ccccc1`, the activation is reported as inactive: 4.5%. In the case of `COc1cccc(C(=O)CSc2nc3ccccc3n2CC(=O)N2CCOCC2)c1`, the activation is reported as inactive: 3.7%. `CCOC(=O)c1ccc(NC(=O)Cn2c(-c3nonc3N)nc3ccccc32)cc1` was tested, and the activation was inactive: 2.3%. With `O=C(Cn1c(CO)nc2ccccc21)NCCc1ccccc1` the activation was inactive: -5.7%. For `Nc1cccc2c([As](=O)(O)O)cccc12`, the activation was inactive: 2.6%. For `Cn1c(=O)c2c(ncn2CC(=O)Nc2cc(Cl)c(Cl)cc2Cl)n(C)c1=O`, the activation was inactive: -3%. With `CCCCC(=O)Nc1ccc2c(c1)nc1n2CCN(CCOC)C1` the activation was inactive: 4.2%. For `Cc1ccc(NCCc2c([N+](=O)[O-])cc([N+](=O)[O-])cc2[N+](=O)[O-])cc1`, the activation was inactive: -4.8%. In the case of `O=C(Cn1c(C(F)(F)F)nc2ccccc21)Nc1ccccc1N1CCOCC1`, the activation is reported as inactive: 4.5%. `O=C(Nc1nc2ccccc2n1CCN1CCOCC1)c1ccccc1` was tested, and the activation was inactive: 1.4%. With `NNC(=O)Cn1cnc2ccccc21` the activation was inactive: 0%. In the case of `Cc1ccc2c(c1)C1CN(C)CCC1N2C(=O)c1ccccc1NS(=O)(=O)c1cccc(C(F)(F)F)c1` (centres undefined), the activation is reported as inactive: 5.3%. With `Oc1ccc(CC2(N3CCCC3)CCCCC2)cc1` the activation was inactive: 0.7%. For `Cn1c(=O)n(CCc2ccccc2)c(=O)c2c1nc1n2CCN1Cc1ccco1`, the activation was inactive: -3.4%. With `C[C@H](NC(=O)N1CCn2c1nc1ccccc12)C(=O)NCc1ccc(F)cc1` the activation was inactive: -5%. With `CSCC[C@H](NC(=O)N1CCn2c1nc1ccccc12)C(=O)N1CCCCC1` the activation was inactive: -1.9%. With `CCCOP(=S)(Nc1nc(N)cc(=O)[nH]1)OCCC` the activation was inactive: 4.7%. `O=C(CSc1nc2ccccc2n1CC(=O)N1CCOCC1)N1CCCC1` was tested, and the activation was inactive: -4.3%. In the case of `CCN(CC)CCCNC(=S)N1CCn2c(nc3ccccc32)C1`, the activation is reported as inactive: 13.2%. In the case of `COc1cccc(CNC(=O)[C@H](CC(C)C)NC(=O)N2CCn3c2nc2ccccc23)c1`, the activation is reported as inactive: -1.2%. With `COc1ccc(CNC(=O)[C@H](C)NC(=O)N2CCn3c2nc2ccccc23)cc1` the activation was inactive: -1.3%. For `CCOP(=O)(Nc1cccc2ccccc12)OCC`, the activation was inactive: -1.3%. `COc1cccc(CNc2nc3ccccc3n2CCN2CCCCC2)c1` was tested, and the activation was inactive: 6.8%. For `O=C(Nc1ccccc1)N1CCn2c(nc3ccccc32)C1`, the activation was inactive: -0.3%. For `O=C(CSc1nc2ccccc2n1CC(=O)N1CCCC1)Nc1ccc2c(c1)OCO2`, the activation was inactive: -8.1%. In the case of `O=C(Nc1ccc2c(c1)nc1n2CCN(C2CCCCC2)C1)c1ccco1`, the activation is reported as inactive: -1.2%. In the case of `O=C(CCCCCNC(=O)N1CCn2c1nc1ccccc12)NCc1ccccc1Cl`, the activation is reported as inactive: 1.3%.
